This series in a line: Plasma protein binding. The series is classed as in vitro ADME. The conditions noted are these: equilibrium dialysis, mouse serum, 10 μM, 4 h, 37 °C.

This note sets out measurements from publication PMC8873552 (Chemical Science, 2021).

Substance 7-amino-4-methylcoumarin showed a serum protein binding of 44%.
